The source of these data is US4711245A, “Sensor for components of a liquid mixture” (Genetics International, Inc., priority 1983, dated 1987).

Data set [1] in a line: spectrophotometric measurement (E, cm^-1 M^-1).
Data set [2] in a line: dc cyclic voltammetry of ferrocene derivatives (redox potential). Type of data set: physicochemical.

This is a selection: effects in other tests are not listed, and their absence says nothing.

In data set [1], ferrocene monocarboxylic acid had an E of 420 cm⁻¹ M⁻¹. The ΔEp in data set [2] (voltammogram of FIG. 10, reversible one-electron couple) stood at 60 mV. Moreover, the “Eo/mV vs SCE” value in data set [2] (vs SCE, pH 7 and 25° C.) came out at 275 mV. The Eo in data set [2] (vs a standard calomel electrode, phosphate buffer at pH 7.0) was determined as 275 mV.
